Bioassay records as filed in PubChem.
Statin myotox sup – suppressors of statin myotoxicity in C2C12 myotubes, primary screen, cell-based, single point, plate reader; C2C12 myotubes + simvastatin, ATP luminescence, 48 h; scaled: DMSO 0, geranylgeraniol control 100; rescue of ATP level, % at 7.49 µM; 330,000 tested, 0.78% active;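 active means mean ATP rescue above about 67%, or every replicate alone reaching that limit, limit read from the data, passing the limit was not always enough; inconclusive means no clear call, values can overlap the other calls; inactive means mean under the limit and some replicate under it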;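 further: myotubes were challenged with 10 µM simvastatin during compound exposure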
E-sel inducer – E-selectin induction in HUVECs, primary screen, imaging, HUVEC, immunofluorescence imaging, single point; P16581; normalized: neutral wells 0, TNF-alpha wells 100; activation, % at 7.58 µM; 260,000 tested, 0.37% active; AID 686992, 2013;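 active means mean E-selectin-positive cell signal at least 10% of the positive control, reached in at least 60% of replicates, without over 20% cell loss; inconclusive means no rule given, readout overlaps actives, possibly toxicity-flagged; inactive means the rest, including those meeting only one limit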
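Material: HUVEC primary endothelial cells; Amount: 3,000 cells per well; Dosing: single concentration; Medium: EGM-2 growth medium on 0.1% gelatin-coated wells; Read-out basis: percent E-selectin-positive cells; Signal: immunofluorescence imaging; Control set: TNF-alpha, DMSO.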
UUG fidelity – modulators of yeast start codon fidelity, primary screen, whole organism, S. cerevisiae, single point, plate reader | AID 602363, 2012 | actives 0.13% (n = 350,000) | activity score, % at 18.7 µM | S. cerevisiae UUG-firefly luciferase reporter, luminescence/redox ratio;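 active means replicate mean at a twofold rise or more, about +100% in these data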;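 further: firefly luciferase made from a UUG start codon reports start codon fidelity; reporter light over untreated wells divided by growth signal over untreated wells; some hits fall short of that in this replicate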
PGC1a acetyl inh – inhibitors of PGC1a acetylation signal, primary screen, cell-based, U2OS, AlphaScreen, inhibitor mode. AlphaScreen anti-acetyl-lysine; with virally co-expressed GCN5 acetyltransferase. AID 651687, 2012. inhibition, % at 15.6 µM. 350,000 tested, 0.17% active;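 active means every replicate shows inhibition of at least 40%; inconclusive means mean inhibition at least 40% but some replicate below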;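 further: 0% = neutral control wells and 100% = positive control wells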
PglD DTNB – C. jejuni PglD acetyltransferase inhibitors, primary screen, biochemical, DTNB colorimetric, single point; purified PglD enzyme, DTNB colorimetric CoA detection; inhibition, % at 12.5 µM; 360,000 tested, 0.098% active; UDP-N-acetylbacillosamine N-acetyltransferase PglD (Campylobacter jejuni); AID 602405, 2012; in the data active means inhibition above about 16%, passing the limit was not always enough; inconclusive means no clear call, values can overlap the other calls
esBAF inh – Bmi1 luciferase reporter increase in mESCs, primary screen, esBAF inhibitor project, mouse ES cells, Bmi1 luciferase knock-in, single point; reporter increase, % at 12.5 µM; 24 h; 100% = twice the neutral-well signal; 350,000 tested, 2% active; in the data active means activation above about 40%; inconclusive means no clear call, values can overlap the other calls;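 further: 0% = median of the plate's neutral control wells and 100% = double that signal; a rise in the Bmi1 reporter signal indicates esBAF inhibition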
Starred values were filed as active, the others as inactive; ? = inconclusive; . = no result given. Shown are actives, neighbours in structure and some others; about 2.8% of the full set was active somewhere.

Below each SMILES: Statin myotox sup | E-sel inducer | UUG fidelity | PGC1a acetyl inh | PglD DTNB | esBAF inh
- O=C(Nc1ccc(F)c(Cl)c1)c1csc([C@@H]2C[C@H](O)[C@@H](CO)O2)n1
→ -3 | 0 | -20 | . | -7 | 43*
- O=C(Nc1ccc(F)c(Cl)c1)c1csc(COCCO)n1
→ -16 | 0 | -17 | -4 | -2 | 51*
- O=C(Nc1ccc(F)c(Cl)c1)c1csc([C@H]2C[C@H](O)[C@@H](CO)O2)n1
→ -38 | 0 | -9 | . | -3 | 88*
- O=C(Nc1ccc2c(c1)OCO2)c1csc(COCCO)n1
→ 11 | . | -9 | . | 0 | 19
- C[C@@H]1CN([C@H](C)CO)C(=O)Cc2cc(NS(=O)(=O)c3ccc(Cl)cc3)ccc2O[C@@H]1CN(C)C(=O)Nc1cccc2ccccc12
→ 24 | 16 | -5 | -3 | -2 | -1
- CC(C)NC(=O)N(C)C[C@H]1Oc2ncc(-c3cccc(C#N)c3)cc2C(=O)N([C@H](C)CO)C[C@@H]1C
→ -10 | ? | -4 | 6 | 1 | -2
- C[C@@H]1CN([C@H](C)CO)C(=O)Cc2cc(NC(=O)Nc3ccc4c(c3)OCO4)ccc2O[C@H]1CN(C)Cc1ccc(Oc2ccccc2)cc1
→ 39 | 0 | 1 | -13 | -4 | 6
- O=C(Nc1cccnc1)OCc1ccccc1
→ 16 | . | -17 | . | 3 | 31
- O=C(Nc1ccc(Cl)c(Cl)c1)OCc1cccnc1
→ -18 | . | -8 | -8 | -2 | 53*
- Cc1[nH]nc2ncc(C(=O)c3ccccc3O)cc12
→ -9 | . | -17 | 45* | 4 | -24
- Cc1nn(C)c2ncc(C(=O)c3ccccc3O)cc12
→ -19 | 0 | -9 | 5 | 2 | -5
- O=C(CSc1nnnn1-c1ccccc1)NC(=O)NCc1ccco1
→ 95* | . | -16 | -5 | -1 | 6
- Nc1c(-c2ccc(Cl)cc2)cnn1-c1cccc(C(F)(F)F)c1
→ . | . | -2 | -8 | -3 | 68*
- Cc1ccc(-c2cnn(-c3cccc(C(F)(F)F)c3)c2N)cc1
→ -9 | . | 10 | 9 | -4 | 87*
- Cc1nn(-c2ccccc2)c(N)c1Sc1cccc([N+](=O)[O-])c1
→ 7 | . | 0 | -8 | 7 | 5
- Nc1c(-c2ccc(Cl)cc2)cnn1-c1cccc([N+](=O)[O-])c1
→ -8 | . | -8 | . | -5 | 64*
- Cc1nn(-c2cccc([N+](=O)[O-])c2)c(N)c1-c1ccccc1
→ -3 | . | -15 | 12 | -2 | 66*
- C/C=C/c1cnc2c(c1)C(=O)N([C@H](C)CO)C[C@@H](C)[C@@H](CN(C)S(=O)(=O)c1cn(C)cn1)O2
→ 4 | 0 | . | 3 | 1 | -2
- C[C@H](CO)N1C[C@H](C)[C@@H](CN(C)C(=O)c2cccc(F)c2)Oc2cc(C#CC3CCCC3)ccc2S1(=O)=O
→ -42 | 6 | . | 1 | . | .
- CN(C)c1ccc(C2C3C(=O)N(c4ccc(C(=O)O)cc4)C(=O)C3ON2c2ccccc2)cc1 (stereo not drawn)
→ 101* | . | -14 | -18 | 4 | 0

An excerpt from above in order of heavy-atom count, highest first:
Below each SMILES: Statin myotox sup | E-sel inducer | UUG fidelity | PGC1a acetyl inh | PglD DTNB | esBAF inh
- C[C@@H]1CN([C@H](C)CO)C(=O)Cc2cc(NS(=O)(=O)c3ccc(Cl)cc3)ccc2O[C@@H]1CN(C)C(=O)Nc1cccc2ccccc12
→ 24 | 16 | -5 | -3 | -2 | -1
- O=C(CSc1nnnn1-c1ccccc1)NC(=O)NCc1ccco1
→ 95* | . | -16 | -5 | -1 | 6
- Nc1c(-c2ccc(Cl)cc2)cnn1-c1cccc([N+](=O)[O-])c1
→ -8 | . | -8 | . | -5 | 64*

Next structures:
Below each SMILES: Statin myotox sup | E-sel inducer | UUG fidelity | PGC1a acetyl inh | PglD DTNB | esBAF inh
- Cc1nnc(SCc2ccccc2)nc1-c1ccccc1
→ 1 | 0 | -2 | 0 | -1 | 83*
- CCCCCCCCC(=O)O
→ -3 | . | -1 | 66* | 3 | -5
- O=C1NC(c2ccc(O)cc2)Nc2ccccc21 (stereo not drawn)
→ 5 | . | -12 | . | 1 | 19
- CSc1ccc(C2NC(=O)c3ccccc3N2)cc1 (stereo not drawn)
→ -11 | 1 | -13 | -31 | -8 | 65*
- Cc1ccc(S(=O)(=O)Nc2cccc3c2O[C@@H](CN(C)C(=O)NC2CCCCC2)[C@H](C)CN([C@@H](C)CO)C3=O)cc1
→ 7 | 0 | 19 | -9 | 3 | 3
- Cc1ccc(S(=O)(=O)Nc2ccc3c(c2)CC(=O)N([C@H](C)CO)C[C@H](C)[C@@H](CN(C)C(=O)Nc2ccc(C(F)(F)F)cc2)O3)cc1
→ 2 | 0 | 16 | -7 | 1 | 5
- COc1ccc(CNC(=O)CN(C(=O)c2csnn2)c2cccc3c2CCCC3)cc1
→ 73* | 0 | -7 | 1 | 3 | 3
- O=C(O)c1ccc(-c2nc(-c3ccc(Cl)cc3Cl)cs2)cc1
→ -55 | . | 555* | 11 | -4 | 60*
- O=C(O)c1ccc(-c2nc(-c3ccc(Cl)cc3)cs2)cc1
→ . | 1 | . | -8 | . | .
- O=C1CC(N2CCOCC2)C(=O)N1Cc1ccc(N2CCCC2=O)cc1 (stereo not drawn)
→ 3 | . | -9 | -2 | -2 | -4
- O=C1CC(N2CCN(C/C=C/c3ccccc3)CC2)C(=O)N1Cc1ccc(N2CCCC2=O)cc1 (stereo not drawn)
→ 100* | . | 0 | 14 | -1 | -1
- Clc1cccc(Cl)c1C1=NOC(c2nnc(-c3ccccc3)o2)C1 (stereo not drawn)
→ 17 | 0 | -13 | -2 | 2 | 50*
- Clc1ccc(C2=NOC(c3nnc(-c4ccccc4)o3)C2)cc1 (stereo not drawn)
→ 9 | 0 | -17 | -5 | 2 | 1
- CCCN1C(=O)C(O)(C/C(C)=N/O)c2ccccc21 (stereo not drawn)
→ 125* | . | -6 | 7 | -3 | 1
- CCCN1C(=O)C(O)(CC(=O)c2cccc(OC)c2)c2ccccc21 (stereo not drawn)
→ . | . | -15 | 15 | -3 | .
- CCSC1(SCC)N=C(N)C2(C#N)C(c3ccc(F)cc3)C12C#N (stereo not drawn)
→ 142* | . | -3 | -6 | -7 | 0
- Cc1ccc2[nH]cc(CCNC(=O)CN3C(=O)c4ccccc4C3=O)c2c1
→ 3 | . | . | 0 | . | -4
- Cc1ccc2c(c1)N(CC(=O)NCCc1c[nH]c3ccccc13)C(=O)CO2
→ 80* | . | -4 | . | 11 | -5
- Cc1ccc(NC(=O)CN2C(=O)COc3ccc(C)cc32)nc1
→ 81* | . | -21 | -13 | -2 | -9
- CCOC(=O)c1[nH]c2ccc(Br)cc2c1NC(=O)CCN1CCN(C(=O)OCC)CC1
→ 104* | . | -16 | -22 | -4 | 11

Printed as active in PGC1a acetyl inh, among the entries above:
SMILES	UUG fidelity	PGC1a acetyl inh	PglD DTNB	esBAF inh
Cc1[nH]nc2ncc(C(=O)c3ccccc3O)cc12	-17	45*	4	-24
CCCCCCCCC(=O)O	-1	66*	3	-5

More results.
Below each SMILES: Statin myotox sup | E-sel inducer | UUG fidelity | PGC1a acetyl inh | PglD DTNB | esBAF inh
- CCOC(=O)c1[nH]c2ccc(OC)cc2c1NC(=O)CCN1CCCC(C)C1 (stereo not drawn)
→ 145* | . | -7 | 10 | -1 | 0
- CCOC(=O)Nc1c(C(=O)OC)[nH]c2cc(OC)ccc12
→ 107* | . | -11 | -14 | 5 | 3
- CCOC(=O)c1[nH]c2ccc(Br)cc2c1NC(=O)CCN1CCOCC1
→ . | 0 | -9 | -5 | 1 | .
- C[C@H]1CN([C@@H](C)CO)S(=O)(=O)c2ccc(-c3ccccc3)cc2O[C@@H]1CN(C)S(C)(=O)=O
→ 33 | 0 | 11 | -26 | -3 | 3
